We go through 1 compound from patent EP2505659A1, “Methods for the identification of dioxygenase interacting molecules and for the purification of dioxygenase proteins” (CELLZOME AG, priority 2011, dated 2012).

By UniProt entry, the sequences of proteins in these tests, tags left out. Where a name states a change or a piece, a line headed by the entry shows the natural chain unless it says otherwise.
UniProt Q9GZT9: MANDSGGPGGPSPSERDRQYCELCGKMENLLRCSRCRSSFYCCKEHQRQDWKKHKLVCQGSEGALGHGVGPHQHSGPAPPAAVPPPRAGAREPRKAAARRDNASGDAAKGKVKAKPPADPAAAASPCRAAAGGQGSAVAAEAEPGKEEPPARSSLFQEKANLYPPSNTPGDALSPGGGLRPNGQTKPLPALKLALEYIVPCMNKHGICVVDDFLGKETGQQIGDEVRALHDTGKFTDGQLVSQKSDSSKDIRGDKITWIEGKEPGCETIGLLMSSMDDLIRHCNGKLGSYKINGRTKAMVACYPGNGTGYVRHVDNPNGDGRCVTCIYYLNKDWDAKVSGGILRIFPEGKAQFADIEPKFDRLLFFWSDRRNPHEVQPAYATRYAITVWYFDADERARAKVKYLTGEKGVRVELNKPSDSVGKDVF
UniProt Q9C0B1, whole entry: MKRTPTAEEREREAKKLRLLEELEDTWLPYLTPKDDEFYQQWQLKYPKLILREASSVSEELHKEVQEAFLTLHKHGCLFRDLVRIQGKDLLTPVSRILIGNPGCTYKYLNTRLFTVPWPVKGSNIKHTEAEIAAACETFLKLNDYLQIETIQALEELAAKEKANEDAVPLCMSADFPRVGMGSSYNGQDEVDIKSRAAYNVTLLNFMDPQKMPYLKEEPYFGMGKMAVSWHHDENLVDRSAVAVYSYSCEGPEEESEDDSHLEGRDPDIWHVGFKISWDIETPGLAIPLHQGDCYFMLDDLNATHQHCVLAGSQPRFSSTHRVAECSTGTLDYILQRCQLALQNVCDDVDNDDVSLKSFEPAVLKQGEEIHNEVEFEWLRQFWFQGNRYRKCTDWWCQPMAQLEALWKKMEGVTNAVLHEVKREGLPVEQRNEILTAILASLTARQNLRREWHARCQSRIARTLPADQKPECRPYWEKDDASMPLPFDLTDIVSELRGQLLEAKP
UniProt Q6NS38: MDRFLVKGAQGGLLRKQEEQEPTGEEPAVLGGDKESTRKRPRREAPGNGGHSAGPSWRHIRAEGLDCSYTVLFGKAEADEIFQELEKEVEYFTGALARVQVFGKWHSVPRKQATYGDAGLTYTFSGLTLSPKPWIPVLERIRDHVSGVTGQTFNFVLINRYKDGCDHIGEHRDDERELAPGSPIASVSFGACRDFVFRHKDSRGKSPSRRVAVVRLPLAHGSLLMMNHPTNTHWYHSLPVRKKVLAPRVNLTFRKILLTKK
UniProt Q6P6C2: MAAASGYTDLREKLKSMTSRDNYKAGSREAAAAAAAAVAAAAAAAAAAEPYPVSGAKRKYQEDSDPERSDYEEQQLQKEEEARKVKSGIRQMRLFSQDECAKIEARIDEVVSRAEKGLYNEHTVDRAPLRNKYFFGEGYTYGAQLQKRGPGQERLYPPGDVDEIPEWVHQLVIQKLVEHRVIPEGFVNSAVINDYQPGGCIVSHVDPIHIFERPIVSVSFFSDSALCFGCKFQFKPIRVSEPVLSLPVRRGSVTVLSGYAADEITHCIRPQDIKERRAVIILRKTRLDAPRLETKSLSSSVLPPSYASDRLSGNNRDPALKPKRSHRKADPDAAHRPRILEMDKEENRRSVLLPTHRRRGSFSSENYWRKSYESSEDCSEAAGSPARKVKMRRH

The structures appear in SMILES notation. Where a name gives a salt, the structure may show the parent alone. Read-outs that look alike come from different tables or passages of the source.

One assay deals with EGLN1 (Homo sapiens, UniProt Q9GZT9). The assay is described as follows: Bead competition binding assay, immobilized compound A, K-562, HL-60 and Jurkat nuclear lysates. On the set-up: endogenous in cells. Particulars: 100 µM free compound A, K-562 nuclear lysate, read-out: Fold change versus DMSO control. An excerpt:
(§1) K562 cells were also purchased from DSMZ (Braunschweig, Germany).
(§2) Table 5: Peptide elution off the LC system
(§3) Seventeen different dioxygenases were identified.

The target in the next assay is FTO (Homo sapiens, UniProt Q9C0B1). The assay is described as above. Set-up: endogenous in cells. Particulars: 100 µM free compound A, HL-60 nuclear lysate, read-out: Fold change versus DMSO control.
Description: as §1, §2, §3

For the next assay, the target named is ALKBH2 (Homo sapiens, UniProt Q6NS38). The assay is described as follows: biochemical. Conditions: read-out: Fold change versus DMSO control, ALKBH2, 100 µM free compound A.
Description: (§4) The proteins bound to the immobilized compound were eluted with detergent-containing buffer and separated on a SDS-polyacryamide gel. […] Table 4: Compound treatment and TMT-labeling of cell samples
(§5) Jurkat cells (ATCC number TIB-152) were either obtained from an external supplier (CIL SA, Mons, Belgium) or grown in one litre Spinner flasks (Integra Biosciences, #182101) in suspension in RPMI 1640 medium (Invitrogen, #21875-034) supplemented with 10% Fetal Bovine Serum (Invitrogen, #10270-106) at a density between 0.2 x 10^6 and 1.0 x 10^6 cells/ml. Cells were harvested by centrifugation, washed once with 1 x PBS buffer (Invitrogen, #14190-094) and cell pellets were frozen in liquid nitrogen and subsequently stored at -80°C.
(§6) Source of HL-60 cells: HL-60 cell line (DSMZ, Braunschweig, Germany; DSMZ number ACC3). K562 cells were also purchased from DSMZ (Braunschweig, Germany).
(§7) Extracts of nuclei were prepared according to the Dignam protocol (Dignam et al., 1983. Nucleic Acids Res. 11 (5):1475-89).
(§8) The TMT reagents are a set of multiplexed, amine-specific, stable isotope reagents that can label peptides on amino groups in up to six different biological samples enabling simultaneous identification and quantitation of peptides. The TMT reagents were used according to instructions provided by the manufacturer. The samples were resuspended in 10 µl 50 mM TEAB solution, pH 8.5 and 10 µl acetonitril were added. The TMT reagent was dissolved in acetonitrile to a final concentration of 24 mM and 10 µl of reagent solution were added to the sample. The labeling reaction was performed at room temperature for one hour on a horizontal shaker and stopped by adding 5 µl of 100 mM TEAB and 100 mM glycine in water. The labeled samples were then combined, dried in a vacuum centrifuge and resuspended in 60% 200mM TEAB / 40% acetonitril.
as §2

For the next assay, the target named is ALKBH5 (Homo sapiens, UniProt Q6P6C2). As to the kind of experiment: biochemical. Particulars: read-out: Fold change versus DMSO control, ALKBH5, 100 µM free compound A.
Description: as §4, §5, §6, §7, §8, §2

The target of another assay is T1, C17ORF101 (Homo sapiens, UniProt Q6PK18).
T1 sequence (Q6PK18 1-331 isoform Q6PK18-2): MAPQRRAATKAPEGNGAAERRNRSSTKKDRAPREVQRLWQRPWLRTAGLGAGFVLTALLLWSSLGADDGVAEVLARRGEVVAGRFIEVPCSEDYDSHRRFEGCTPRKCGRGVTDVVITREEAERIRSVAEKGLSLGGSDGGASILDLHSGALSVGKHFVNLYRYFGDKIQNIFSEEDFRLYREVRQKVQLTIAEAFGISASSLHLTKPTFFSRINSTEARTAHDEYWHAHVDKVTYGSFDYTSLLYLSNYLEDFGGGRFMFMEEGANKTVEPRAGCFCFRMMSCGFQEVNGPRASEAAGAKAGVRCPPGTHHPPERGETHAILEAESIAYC
As to the kind of experiment: Bead competition binding assay, immobilized compound A, K-562, HL-60 and Jurkat nuclear lysates. Set-up: capturing and identification of dioxygenases from nuclear protein extracts; endogenous in cells.
Description: as §4, §5, §6, §7
The TMT reagents are a set of multiplexed, amine-specific, stable isotope reagents that can label peptides on amino groups in up to six different biological samples enabling simultaneous identification and quantitation of peptides. The TMT reagents were used according to instructions provided by the manufacturer. […]

On to `O=C(O)CNC(=O)C1C(=O)OC2(CCNCC2)OC1=O` [compound A, 2-(2,4-dioxo-1,5-dioxa-9-azaspiro[5.5]undecane-3-carboxamido)acetic acid hydrochloride], for which the remaining binding at 100 µM on EGLN1 came out at 21%; at FTO, 26%; on C17ORF101 (read-out: Fold change versus DMSO control) it was 42%; at C17ORF101 (read-out: Fold change versus DMSO control, C17ORF101, 100 µM free compound A, Jurkat nuclear lysate), 41%. In addition, the remaining activity at 100 µM is 178% on ALKBH2 (HL-60 nuclear lysate); 108% at ALKBH2 (Jurkat nuclear lysate); 85% on ALKBH2 (K-562 nuclear lysate); 78% at ALKBH5 (HL-60 nuclear lysate); 56% on ALKBH5 (Jurkat nuclear lysate); 44% on ALKBH5 (K-562 nuclear lysate).
